Results on one compound are retold here after article PMC4991483 (Oncotarget, 2016).

The data set in a line: HPLC-based glutathione (GSH) reactivity / chemical stability assay, 10 mM GSH with TCEP-HCl. The following applies: 100 μM compound, 10 h timescale.

Consider `Cc1ccc(S(=O)(=O)OCC(=O)Nc2ccc(C(=O)O)c(O)c2)cc1` [S3I-201], for which the “reactivity with GSH” value is given as “rapidly degraded”.
